SMILES strings stand for the structures. The entries are a selection whose mix differs from that of the whole data set. Active and inactive are the calls of the source.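 Rule for the calls: active = binding more than 3 SD below its plate's average and above zero; inconclusive = below that plate limit but binding exactly zero; inactive = the rest.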

By UniProt entry, the sequences of proteins in these tests, tags left out. Where a name states a change or a piece, a line headed by the entry shows the natural chain unless it says otherwise.
UniProt P32926: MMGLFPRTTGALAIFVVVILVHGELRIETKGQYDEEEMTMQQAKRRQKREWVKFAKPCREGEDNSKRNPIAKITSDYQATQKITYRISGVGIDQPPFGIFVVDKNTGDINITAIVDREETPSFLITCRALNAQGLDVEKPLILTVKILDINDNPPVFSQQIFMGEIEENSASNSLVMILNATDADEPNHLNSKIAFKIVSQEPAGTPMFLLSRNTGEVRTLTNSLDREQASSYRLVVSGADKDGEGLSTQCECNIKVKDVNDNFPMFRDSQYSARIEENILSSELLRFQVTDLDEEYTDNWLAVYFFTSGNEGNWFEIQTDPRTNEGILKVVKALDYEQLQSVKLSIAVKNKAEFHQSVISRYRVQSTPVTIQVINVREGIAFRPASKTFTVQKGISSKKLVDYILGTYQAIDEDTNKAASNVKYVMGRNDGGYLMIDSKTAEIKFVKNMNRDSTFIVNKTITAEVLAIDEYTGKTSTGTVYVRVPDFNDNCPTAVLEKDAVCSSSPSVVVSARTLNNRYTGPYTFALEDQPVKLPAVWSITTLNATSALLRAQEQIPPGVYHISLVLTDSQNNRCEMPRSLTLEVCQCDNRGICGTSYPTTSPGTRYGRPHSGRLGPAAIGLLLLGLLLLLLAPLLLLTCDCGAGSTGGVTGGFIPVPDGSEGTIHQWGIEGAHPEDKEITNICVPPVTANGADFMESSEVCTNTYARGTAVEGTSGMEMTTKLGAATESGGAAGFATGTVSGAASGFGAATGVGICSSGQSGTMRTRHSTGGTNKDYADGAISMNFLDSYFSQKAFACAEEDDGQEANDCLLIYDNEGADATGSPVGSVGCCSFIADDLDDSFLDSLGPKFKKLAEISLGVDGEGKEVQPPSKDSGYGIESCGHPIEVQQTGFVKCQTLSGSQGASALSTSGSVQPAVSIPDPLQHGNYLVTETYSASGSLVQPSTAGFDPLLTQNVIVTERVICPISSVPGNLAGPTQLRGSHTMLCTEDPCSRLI

This assay addresses Desmoglein-3 (Homo sapiens) (UniProt P32926). Kind of assay: blockers of anti-DSG3 scFv binding – biochemical, bead-based, flow cytometry, scFv-GFP, primary screen (AID 588358).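 Note: hits lower antibody fragment binding to DSG3.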 The note with it: DSG3-coupled beads, at 10 µM, hits give low values. A general note: In flow cytometry, cells or beads pass a laser one at a time.
For `O=P1(N(CCCl)CCCl)OCCCS1` (configuration not stated), the binding (percent of control) was inactive: 110%. For `O=C(Nc1cc([As](=O)(O)O)ccc1O)c1ccccc1` the value was inactive: 91.7%; for `Nc1ccc([As](=O)(O)c2ccc(N)cc2)cc1`, inactive: 106%. With `C[N+]1=C2C=CC=CC=C2SC12C([N+](=O)[O-])=CC([N+](=O)[O-])=C[C-]2[N+](=O)[O-]` (configuration not stated) the figure was inactive: 87.1%; with `CCN(/C(=N/P(=O)(N1CCOCC1)N1CCOCC1)N1CCOCC1)c1ccc(OC)cc1`, inactive: 85.9%; with `CC(C)c1nc(Nc2ccccc2)n(P(=O)(N(C)C)N(C)C)n1`, inactive: 101%. With `CC(C)=N/N=C(\N)N[N+](=O)[O-]` the figure was inactive: 97.7%; with `CN(C)C(=O)OCCc1n(C)cc[n+]1C`, inactive: 99.8%; with `CC1CCN(C(=O)Oc2c(Cl)cc(Cl)c3cccnc23)CC1`, inactive: 108%. Regarding `c1cc(-c2nn[nH]n2)ccc1-c1nn[nH]n1`, the binding (percent of control) was inactive: 111%. With `COc1ccc(C2=NCC(CBr)S2)cc1` (configuration not stated) the figure was inactive: 110%; with `O=[N+]([O-])c1cccc2n[nH]nc12`, inactive: 98.5%; with `CC(=O)N1C2C3N(C(C)=O)C1C1N(C(C)=O)C(C(N1C(C)=O)N3C(C)=O)N2C(C)=O`, inactive: 104%. For `Cc1ccc(NP(=O)(Oc2ccccc2)Oc2ccccc2)nc1` the value was inactive: 93.5%; for `CCc1nc2c(n1)c1c(non1O)c1c2no[n+]1[O-]`, inactive: 105%; for `O=[N+]([O-])c1cc([N+](=O)[O-])c(CCNc2ccccc2)c([N+](=O)[O-])c1`, inactive: 95.6%. For `CC(C)C(=O)NC(Sc1ccccc1)C(Cl)(Cl)Cl` (configuration not stated) the value was inactive: 98.4%; for `O=P(Nc1nccs1)(c1ccccc1)c1ccccc1`, inactive: 104%. As for `c1nnnn1CCn1cnnn1`, the binding (percent of control) is inactive: 97%.

Regarding `O=[N+]([O-])c1ccc(O)c(/C=N/Nc2ccc([N+](=O)[O-])cc2[N+](=O)[O-])c1`, the binding (percent of control) is inactive: 116%. With `CC(=O)NC(SC(=S)N(C)C)C(Cl)(Cl)Cl` (configuration not stated) the figure was inactive: 103%. For `O=[N+]([O-])c1ncn(CCn2cnc([N+](=O)[O-])n2)n1` the value was inactive: 97.3%. With `O=[As](O)(c1ccccc1)c1ccc(O)cc1` the figure was inactive: 96%; with `C(Cc1nn[nH]n1)Cc1nn[nH]n1`, inactive: 84.3%; with `Nc1ccc([As](=O)(O)c2ccc([N+](=O)[O-])cc2)cc1`, inactive: 104%. Consider `COc1ccc(N)c([N+](=O)[O-])c1[N+](=O)[O-]`, for which the binding (percent of control) was inactive: 115%. Take `O=P(Nc1ccccn1)(c1ccc(Br)cc1)c1ccc(Br)cc1`: the binding (percent of control) was inactive: 113%. With `CN(C)C1(CNC(=O)c2ccc(Cl)c(S(N)(=O)=O)c2)CCCCC1` the figure was inactive: 104%. With `O=P(Nc1nc2ccccc2s1)(c1ccccc1)c1ccccc1` the figure was inactive: 98.4%.

As for `C[C@H]1OP(=O)(Oc2ccccc2)[C@H](O)[C@H](O)[C@H]1N=[N+]=[N-]` (some centres not stated), the binding (percent of control) is inactive: 110%.

In the case of `COC(=O)c1cc2c(s1)N=C(c1ccccc1)N(C)P2(=O)N1CCOCC1` (configuration not stated), the binding (percent of control) is inactive: 102%. With `CC(=O)NC(SC(=S)N(CC(C)C)CC(C)C)C(Cl)(Cl)Cl` (configuration not stated) the figure was inactive: 97.4%; with `Cc1ccc(OP(=O)(Nc2ccccn2)Oc2ccc(C)cc2)cc1`, inactive: 108%; with `O=C(OC1CN2CCC1CC2)c1ccccc1` (configuration not stated), inactive: 88.2%. For `CCC(=O)N1C2C3N(C(=O)CC)C1C1N(C(=O)CC)C(C(N1C(=O)CC)N3C(=O)CC)N2C(=O)CC` the value was inactive: 109%; for `CC(NC(=O)COC(=O)C(O)(c1ccccc1)c1ccccc1)c1ccccc1` (configuration not stated), inactive: 104%. For the molecule `O=c1c2cc([N+](=O)[O-])ccc2[nH]c2c([N+](=O)[O-])cc([N+](=O)[O-])cc12`, the binding (percent of control) is inactive: 75.7%.

As for `CN(C)C(=O)Oc1noc2ccccc12`, the binding (percent of control) is inactive: 102%. With `CCNC(=S)/N=C(\N)N[N+](=O)[O-]` the figure was inactive: 102%; with `O=C(NC1CCS(=O)(=O)C1)NP(=S)(Oc1ccccc1)Oc1ccccc1` (configuration not stated), inactive: 96.2%; with `Cc1ccc(NP(=O)(Oc2cccc(C)c2)Oc2cccc(C)c2)nc1`, inactive: 94.7%. `O=P1(N(CCCl)CCCl)OCCC2CCCCN21` (configuration not stated): the binding (percent of control) was inactive: 115%.

As for `CC(=O)c1ccc(N2CC2c2ccncc2)cc1` (configuration not stated), the binding (percent of control) is inactive: 94.8%. For `COC(=O)C1(C)COP(=O)(NCc2ccccc2)OC1` (configuration not stated) the value was inactive: 87.6%. With `Cc1ccccc1CN(C)C(=O)COC(=O)C(O)(c1ccccc1)c1ccccc1` the figure was inactive: 100%; with `C[C@H]1OP(=O)(Oc2ccccc2)C[C@@H]2O[C@@H]21` (some centres not stated), inactive: 98.6%. For `C[C@@H]1C=CCP(=O)(Oc2ccccc2)O1` (some centres not stated) the value was inactive: 102%; for `CC(=O)Nc1ccc([As](=O)(O)O)c(O)c1`, inactive: 101%; for `CC(=O)Nc1ccc(Oc2c([N+](=O)[O-])cc([N+](=O)[O-])cc2[N+](=O)[O-])cc1`, inactive: 102%. For the molecule `CCOc1ccc(C2=NCC(CBr)S2)cc1` (configuration not stated), the binding (percent of control) is inactive: 99.1%.

Turning to `CCc1cc(O)c([N+](=O)[O-])c(C)c1[N+](=O)[O-]`, the binding (percent of control) is inactive: 90.7%.

For `CC(C)(C)C(=O)NC(Sc1ccccc1)C(Cl)(Cl)Cl` (configuration not stated), the binding (percent of control) was inactive: 98.2%.

For the origin of these results see PubChem BioAssay AID588358 (NMMLSC, 2011).
